Laboratory results from patent US9956229B2, “Acyclic cucurbit[n]uril type molecular containers to treat intoxication and decrease relapse rate in substance abuse disorders” (UNIVERSITY OF MARYLAND, COLLEGE PARK, priority 2014, dated 2018).

Test system: fentanyl-induced respiratory depression
Test: Rat breathing studies with fentanyl (pneumotachometer)
Settings: fentanyl 25 mcg/kg IV over 30 mins; calabadion 2 100 mg/kg IV bolus, then naloxone 1 mg/kg IV bolus

## C=CCN1CC[C@]23c4c5ccc(O)c4O[C@H]2C(=O)CC[C@@]3(O)[C@H]1C5
  effect on end-tidal carbon dioxide and minute ventilation during fentanyl infusion: lower recovering effects
